# PubChem BioAssay AID602 (SRMLSC, 2007)
# This is a selection; strong and weak results do not stand in their true shares. Some results for these compounds are left out of this collection, so the calls shown say nothing about other tests. Calls of active or inactive are those of the source.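 The calls were made as follows: active = viability drop by adding the cancer drug above about 55%, with treated viability meeting a 40% cutoff (limit read from the data); inactive = the rest, inconclusive results apart.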
# Assay: MRP1 drug-resistance reversers in H69AR cells – cell-based, doxorubicin co-treatment, primary screen (AID 602);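 also: viability without doxorubicin minus viability with 2 µM doxorubicin for each compound; larger differential means the compound sensitizes cells more to doxorubicin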
# Settings: H69AR cells + 2 uM doxorubicin, CellTiter-Glo, 72 h; at 10 µM; stronger effect = higher value
row,Compound,differential viability (reversal)
1,O=C(OC1CN2CCC1CC2)C(CO)(c1ccccc1)c1ccccc1 (configuration not stated),inactive: -0.77%
2,CN(C)c1cccc(C(=O)NCC2(N(C)C)CCCCC2)c1,inactive: -27.2%
